Reference: PubChem BioAssay AID920 (The Scripps Research Institute Molecular Screening Center, 2007)
This is a selection; strong and weak results do not stand in their true shares. Calls of active or inactive are those of the source.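 Rule for the calls: active = inhibition above a set limit, the mean inhibition across all tested compounds plus 3 SD (cut at about 34% in these data); inactive = the rest.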

Assay: STAT1 signaling inhibitors, primary screen, cell-based, HTS, luciferase reporter (AID 920);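 note: 0% = IFN-gamma with DMSO and 100% = IFN-gamma with 300 µM nifuroxazide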
Details: NIH 3T3 STAT1-luciferase reporter, IFN-gamma, luminescence; at 5.5 µM; hits give high values

Row | Structure (SMILES) | inhibition
1 | CP(=O)(Oc1ccccc1)OC(c1ccccc1)C(F)(F)F (configuration not stated) | inactive: 15.5%
2 | CP(=O)(Nc1ccccn1)Oc1ccc(Cl)cc1 (configuration not stated) | inactive: 6.63%
3 | CCOP(C)(=S)SCC(=O)NC(C)C(=O)O (configuration not stated) | inactive: -11.4%
4 | CCOC(=O)c1ccc(NP(C)(=O)Oc2ccc(OC)cc2)cc1 (configuration not stated) | inactive: 2.97%
5 | CP(=O)(Oc1ccccc1)N1CCOC1=O (configuration not stated) | inactive: 0.16%
6 | CCc1ccc(OP(C)(=O)Nc2cccnc2)cc1 (configuration not stated) | inactive: -1.52%
7 | COc1ccccc1OP(C)(=O)Nc1c(C)n(C)n(-c2ccccc2)c1=O (configuration not stated) | inactive: 5.62%
8 | CCN(CC)CC(O)COC(=O)C(O)(c1ccccc1)C1CCCCC1 (configuration not stated) | inactive: -5.45%
9 | COc1ccc(OP(C)(=O)Nc2ccc(Br)cc2)cc1 (configuration not stated) | inactive: 5.04%
10 | CN(C)C(=O)c1c([N+](=O)[O-])cc([N+](=O)[O-])cc1[N+](=O)[O-] | inactive: -1.06%
11 | CP(=O)(Nc1ccc(Cl)cc1)Oc1ccc(F)cc1 (configuration not stated) | inactive: 8.04%
12 | CC(C)(C)c1ccc(OP(C)(=O)O)cc1 | inactive: -3.24%
13 | COc1ccccc1OP(C)(=O)Nc1ccccc1Br (configuration not stated) | inactive: -6.74%
14 | CP(=O)(OC12CC3CC(CC(C3)C1)C2)OC12CC3CC(CC(C3)C1)C2 | inactive: 12.1%
15 | CCOC(=O)c1ccc(NP(C)(=O)Oc2ccc(Cl)cc2)cc1 (configuration not stated) | inactive: 4.33%
16 | COc1ccc(OP(C)(=O)Nc2ccccc2Br)cc1 (configuration not stated) | inactive: 3.13%
17 | COc1ccccc1OP(C)(=O)Nc1ccc(C)c(C)c1 (configuration not stated) | inactive: 1.12%
18 | Cc1cc(C)cc(OP(C)(=O)Nc2cccc(C(F)(F)F)c2)c1 (configuration not stated) | inactive: -0.34%
19 | CP(=O)(OCCOc1ccccc1)OCCOc1ccccc1 | inactive: -3.19%
20 | CP(=O)(Nc1ccc(Cl)cc1Cl)Oc1ccccc1 (configuration not stated) | inactive: -2.44%
21 | Cc1nc2ccc3ccccc3c2o1.O=[N+]([O-])c1cc([N+](=O)[O-])c(O)c([N+](=O)[O-])c1 | inactive: -5.51%

Row | Structure (SMILES) | inhibition
22 | CN(C)CCOC(=O)C(O)(c1ccccc1)C1CCCC1 (configuration not stated) | inactive: 4.4%
23 | COc1ccc(OP(C)(=O)Nc2ccccn2)cc1 (configuration not stated) | inactive: -0.38%
24 | CCc1ccc(OP(C)(=O)O)cc1 | inactive: 4.74%
25 | CP(=O)(Nc1ccccn1)Oc1ccccc1 (configuration not stated) | inactive: -1.48%
26 | COc1ccccc1OP(C)(=O)Nc1ccc(C)cc1C (configuration not stated) | inactive: 5.96%
27 | O=[N+]([O-])c1cc([N+](=O)[O-])c(Nc2ccccn2)c([N+](=O)[O-])c1 | inactive: 28.5%
28 | Cc1c(NP(C)(=O)Oc2ccc(C(C)C)cc2)c(=O)n(-c2ccccc2)n1C (configuration not stated) | inactive: -4.17%
29 | CC(C)c1ccc(OP(C)(=O)Nc2ccc(SC(F)(F)F)cc2)cc1 (configuration not stated) | inactive: -3.28%
30 | CP(=O)(Nc1ccccc1F)Oc1ccccc1 (configuration not stated) | inactive: -7.52%
31 | O=C(OCCN1CCN(CCOCc2ccccc2)CC1)C(O)(c1ccccc1)c1ccccc1 | inactive: -4.22%
32 | COc1ccc(OP(C)(=O)Nc2ccc(SC(F)(F)F)cc2)cc1 (configuration not stated) | inactive: -1.75%
33 | CCOC(=O)c1ccc(NP(C)(=O)Oc2ccc(F)cc2)cc1 (configuration not stated) | inactive: -4.27%
34 | CP(=O)(Nc1ccccc1)Oc1ccc(F)cc1 (configuration not stated) | inactive: -4.11%
35 | CCN(CC)CCCOC(=O)C(O)(c1ccccc1)C1CCCCC1 (configuration not stated) | inactive: 2.23%
36 | COc1ccc(NP(C)(=O)Oc2ccccc2OC)cc1 (configuration not stated) | inactive: 0.04%
37 | CN(C)CCOC(=O)C(O)(c1ccccc1)C1CCCCC1 (configuration not stated) | inactive: 8.37%
38 | COc1ccc(OP(C)(=O)Nc2cccc(Br)c2)cc1 (configuration not stated) | inactive: 0.63%
39 | O=[N+]([O-])c1cc([N+](=O)[O-])c(NCC2CCS(=O)(=O)C2)c([N+](=O)[O-])c1 (configuration not stated) | inactive: 15.7%
40 | CCOP(C)(=S)SCC(=O)NC(C)(CC)C(=O)O (configuration not stated) | inactive: 1.01%
41 | Cc1ccccc1NP(C)(=O)Nc1ccccc1C | inactive: 3.85%
42 | CP(=O)(Nc1ccc2c(c1)OCCO2)Oc1ccccc1 (configuration not stated) | inactive: 7.76%
